Results reported in patent US20240402196A1 (Exact Sciences Corporation, priority 2018, published 2024).

Chains of the proteins cited; added tags and fusions are not shown. Residues count along the entry.
UniProt P68871, 2-147 limits assumed: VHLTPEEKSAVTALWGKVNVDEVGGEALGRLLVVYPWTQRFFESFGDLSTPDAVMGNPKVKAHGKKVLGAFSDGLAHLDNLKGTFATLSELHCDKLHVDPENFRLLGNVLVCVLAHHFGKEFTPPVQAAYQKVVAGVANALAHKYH
UniProt P69905, 2-142 limits assumed: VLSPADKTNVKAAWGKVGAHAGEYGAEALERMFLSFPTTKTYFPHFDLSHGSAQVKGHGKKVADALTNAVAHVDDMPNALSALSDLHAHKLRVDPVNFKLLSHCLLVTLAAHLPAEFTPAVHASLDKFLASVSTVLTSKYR

Target: T1, Hb (Homo sapiens, UniProt P68871+P69905)
T1 construct: To assess the stability of hemoglobin in stool samples, samples were exposed to simulated shipping stress conditions; from tissue; host or cells: stool samples
Assay: Appendix B additive screen, % Hb Recovery

- Results: No Improvement
Substance: Albumin, Human
